By UniProt entry, the sequences of proteins in these tests, tags left out. Where a name states a change or a piece, a line headed by the entry shows the natural chain unless it says otherwise.
UniProt P41145: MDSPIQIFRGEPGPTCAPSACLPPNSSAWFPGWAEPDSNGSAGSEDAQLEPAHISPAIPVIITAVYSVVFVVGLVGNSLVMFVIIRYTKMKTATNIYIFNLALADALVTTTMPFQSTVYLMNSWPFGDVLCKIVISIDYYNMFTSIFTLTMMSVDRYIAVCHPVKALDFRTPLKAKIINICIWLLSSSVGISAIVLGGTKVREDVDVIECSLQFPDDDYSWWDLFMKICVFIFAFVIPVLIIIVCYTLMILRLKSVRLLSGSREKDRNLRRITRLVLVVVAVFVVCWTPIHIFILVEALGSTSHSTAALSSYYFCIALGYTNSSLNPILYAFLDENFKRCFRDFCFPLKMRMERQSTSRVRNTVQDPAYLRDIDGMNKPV

According to BindingDB's records for 18487043, “Use of receptor chimeras to identify small molecules with high affinity for the dynorphin A binding domain of the kappa opioid receptor” (2008):

Molecular target: Kappa-type opioid receptor (Homo sapiens, UniProt P41145)
Experiment: Displacement of [3H]diprenorphine from human kappa opioid receptor expressed in CHO-K1 cells

CN(C(=O)Cc1ccc(Cl)c(Cl)c1)[C@H](CN1CCCC1)c1ccccc1
Ki: 0.044 nM
